ChEMBL document CHEMBL3785084, “Rational modification of the lead molecule: Enhancement in the anticancer and dihydrofolate reductase inhibitory activity” (Bioorg Med Chem Lett, 2016)

How the values were obtained:
NCI-H322M [1] = conditions: Homo sapiens, 48 h, read-out: Activity
NCI-H322M [2] = assay: cells; conditions: Homo sapiens, 48 h; for CC50: read-out: LC50

SMILES	growth at 10 µM (NCI-H322M [1])	GI50 (NCI-H322M [2])	TGI (NCI-H322M [2])	CC50 (NCI-H322M [2])
CN1C(=O)C(=Cc2cn(CC(O)Cn3cc(C=C4C(=O)N(C)C(=O)N(C)C4=O)c4ccccc43)c3ccccc23)C(=O)N(C)C1=O	78%			
CC1=NN(c2cccc(Cl)c2)C(=O)/C1=C\c1cn(CC(O)Cn2cc(/C=C3\C(=O)N(c4cccc(Cl)c4)N=C3C)c3ccccc32)c2ccccc12	99.1%			
COc1cc(/C=C2\C(=O)Nc3ccccc32)cc(OC)c1O	96%	8.3 µM	40.7 µM	> 100 µM
O=C1NC(=O)C(=Cc2cn(CC(O)Cn3cc(C=C4C(=O)NC(=O)NC4=O)c4ccccc43)c3ccccc23)C(=O)N1	93.5%			
O=C1Nc2ccccc2/C1=C/c1cn(CC(O)Cn2cc(/C=C3\C(=O)Nc4ccccc43)c3ccccc32)c2ccccc12 (stereo unspecified)	-39.1%	1.8 µM	5.6 µM	25.6 µM
